## Apparent affinities of Ab-14 variants for a coronavirus HR2 peptide

From the AlphaSeq antibody data of Engelhart et al. 2022 (doi:10.1038/s41597-022-01779-4), copy in the FLAb collection.

Binding partner: SARS-CoV-2 spike HR2 peptide, sequence PDVDLGDISGINAS.

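Phage display of a naive human antibody library on the peptide gave the parent. The library (AAYL49) carries one to three amino acid substitutions per variant, with no insertions or deletions. The assay is AlphaSeq: two haploid yeast populations carry antibody and antigen on their surface. Mating (16 h, 30 °C) was followed by selection of diploids and sequencing of their barcodes. Scores were corrected for input abundance and mapped to Kd with protein pairs of known affinity run in the same pool. Each pool was mated in three replicate cultures.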

Each scFv is VH, the linker GGGGSGGGGSGGGGS, VL, as in the parent Ab-14, and differs from it in the CDRs of the heavy chain only.
VH: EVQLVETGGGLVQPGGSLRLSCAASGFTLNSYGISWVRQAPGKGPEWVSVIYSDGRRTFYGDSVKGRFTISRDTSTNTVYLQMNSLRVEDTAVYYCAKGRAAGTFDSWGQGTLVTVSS
VL: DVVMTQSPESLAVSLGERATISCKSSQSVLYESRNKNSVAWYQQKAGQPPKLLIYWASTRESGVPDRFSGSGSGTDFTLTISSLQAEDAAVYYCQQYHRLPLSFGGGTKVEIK

Each variant is given by its three heavy chain CDRs, as the data file delimits them; those of the parent are GFTLNSYGIS, VIYSDGRRTFYGDSVK, GRAAGTFDS.
The Kd shown is the geometric mean over detected replicates; a lower Kd is a better binder.
"nd" means that the variant was in the library but no mating with the target was seen in any replicate; the authors take this as a sign of poor binding, and no number exists.
Background: pairings of library AAYL49 with three empty control strains gave a value in 15% of cases (median 11 µM, 5th percentile 680 nM). Values in that range, when seen in few replicates, are hard to tell from nonspecific mating.

CDR-H1 | CDR-H2 | CDR-H3 | Kd | replicates with signal
GKTLNSYGIS | VIYSDGRRTFYGCSVK | GRAAGTFDE | 220 µM | 3 of 3
TFTLNSYGIS | VIYSDGRRTFRGDSVC | GRAAGTFDS | nd | 0 of 3
GFTLNSYGSS | VTESDGRRTFYGDSVK | GRAAGTFDS | nd | 0 of 3
GFTLNSYGIS | VIYSDGRRTFYRDSVK | GRAAGTFDN | 240 nM | 3 of 3
NFTLNSYGIS | VIYSDGQRTFYGDSVK | GRAFGTFDS | 5.5 µM | 1 of 3
GFTLNSYGIS | VIYSDGRWEFYGDSVC | GRAAGTFDS | nd | 0 of 3
GMTLNSYGIS | VIYSDGRRTMYGDSVK | GRAAGIFDS | nd | 0 of 3
GFPPLSYGIS | VIYSDGRRTFYGDSVK | GRAAGTFDS | 400 µM | 2 of 3
GFTLNSYGIS | VIYSHGRRTFYGDQVK | GRAAGGFDS | 43 µM | 3 of 3
GFTLNSYGIS | VIYSDGRRTFYGASVK | GFANGTFDS | 2.9 µM | 2 of 3
FFTLNSYGIS | VIYSDGRRTEYGDSVK | GRRAGTFDS | nd | 0 of 3
GFTLNSYGIS | VITSDGRRWFYGDSVK | GRAFGTFDS | nd | 0 of 3
GFTLNSYGIS | VIYSDGLRTNYGDSVK | GRIAGTFDS | 14 nM | 3 of 3
GFTLYSYGIS | VPYSDGRRTFYGDSVK | GRAAGTFDS | nd | 0 of 3
GFTLCSYGIS | AIYSDGRRTLYGDSVK | GRAAGTFDS | 5.9 µM | 1 of 3
GFTLNSYGIS | VYYSDIRRTFYGDSVK | GRAAHTFDS | nd | 0 of 3
GFTLNSYGIS | VIASDGRRTFYGDSVK | GRAAGTYDS | nd | 0 of 3
GFTLNSYGIS | DIYSDGWRTFYGDCVK | GRAAGTFDS | 40 µM | 1 of 3
GFTLNSYGIS | VIYSDYRDTFYGDSVK | GRADGTFDS | 43 µM | 1 of 3
GFTLNSYGIS | VTYSDGRRYKYGDSVK | GRAAGTFDS | nd | 0 of 3
GFTLNSYGIS | VIYYDGRRMFYGDSVK | GRPAGTFDS | 320 µM | 1 of 3
PWTLNSYGIS | VIYSDGRRTFYGDSVK | GRAAGFFDS | 980 nM | 1 of 3
GFTLNSYGIS | YIYSDGCRTFYGHSVK | GRAAGTFDS | nd | 0 of 3
GFTCNSYGIS | VIYSEGRRTFPGDSVK | GRAAGTFDS | nd | 0 of 3
GNTLNSYDIS | VIYSDGRRTFYGDSVC | GRAAGTFDS | 130 µM | 3 of 3
GFTLNSYGCR | VIYSAGRRTFYGDSVK | GRAAGTFDS | 140 µM | 1 of 3
GFTLNSYGIS | VHYSDGTRVFYGDSVK | GRAAGTFDS | 12 µM | 2 of 3
MFTLNSYGIS | VIWSDGRRTFYGGSVK | GRAAGTFDS | nd | 0 of 3
GFTLNSYGIS | HWYSDGRRTFYGDSVK | GRAAGTWDS | nd | 0 of 3
GFTLNSYIMS | VIYSDGRRTFYGDSVK | GQAAGTFDS | 12 µM | 1 of 3
LFTGNSYGIS | VIYSDGRRTFGGDSVK | GRAAGTFDS | 7.1 µM | 1 of 3
GFTHNSYGIS | VIYSDGRRTFYGDSVK | GHAAGTEDS | nd | 0 of 3
MFTLNSYGIS | VILSDGRRTFYGDSVK | GRAAGNFDS | nd | 0 of 3
GFTLNGYGIF | VIYSDQRRTFYGDSVK | GRAAGTFDS | 17 µM | 1 of 3
GFTLNSYGIS | VIYSDYRRTFYGDSVK | WRAAGTFWS | 66 µM | 1 of 3
GFTLNSYGIS | VIYSDGRRTAAGDSVK | GRAAGTFDS | 2.9 µM | 1 of 3
GFTLNSYGIS | VIYSDGRRWFYGDHVK | GRAAITFDS | 43 µM | 2 of 3
GYTLNSYGIS | VIYSDGRRAFYGDSVK | GRAAGTFDM | 15 µM | 2 of 3
GFTLWSYGIS | VIYSDGRRTFYEDSDK | GRAAGTFDS | 59 µM | 1 of 3
GFTLNSYGIS | VIYRDGHRTFYGDSVK | GRAAGTYDS | 79 µM | 1 of 3
GFVLNSYGIS | VIYSDGRRTFYGDSVK | GRAAPTWDS | 120 nM | 3 of 3
GFTLNSYGIS | GIYSDGRRTFRGDSTK | GRAAGTFDS | 14 µM | 1 of 3
GFTLNQYQIS | VIYSDGRRTFYGDSVK | GRAAGTFDS | 260 µM | 1 of 3
GFTLNSYGIS | VIYSDGRRTAYGDSSK | GVAAGTFDS | 34 nM | 3 of 3
GFTLNSYGIS | WIYPDGRVTFYGDSVK | GRAAGTFDS | 28 µM | 3 of 3
GFTLNSYGIS | VIYSDTRRTFYGDSVE | GRAAGRFDS | nd | 0 of 3
GFTLNAYGIS | VIYSDGRQTFYGDSVK | GVAAGTFDS | 1.7 µM | 3 of 3
GFTLNSMGIS | VIYSKGRRGFYGDSVK | GRAAGTFDS | nd | 0 of 3
GGTLNSYGIS | VIYSDGRRFFYSDSVK | GRAAGTFDS | 490 nM | 3 of 3
GFTLNSYGIS | VISSDGRRTFIGDMVK | GRAAGTFDS | nd | 0 of 3
GFTLNSYGIS | VIYSDGRRTFYGDSKK | NRAAGTNDS | nd | 0 of 3
GFTLNSYGIW | VIYSDGRRTFYLDSVK | GRAAGTEDS | 2.2 µM | 1 of 3
DFTLNSEGIS | VIYSDGRRTFYGDSVK | GRAAITFDS | 31 µM | 1 of 3
GFTLNSYGIS | VIYSDTRRQFYGDSVK | GRAAGTFDS | nd | 0 of 3
GFTLNSYQIS | VIYSWGRRTFFGDSVK | GRAAGTFDS | 4.4 µM | 1 of 3